pIC50: −log10 of the molar value.
What was measured:
TAF1-BD2 = TAF1-BD2 (Homo sapiens, UniProt P21675); assay: TAF1-BD2 TR-FRET Binding Assay; settings: read-out: TAF1-BD2 HTRF IC50
Method: IC50 Measurements for Inhibitors Using TAF1-BD2 TR-FRET Binding Assay
His/Flag epitope tagged TAF1-BD21504-1635 was cloned, expressed, and purified to homogeneity. TAF1-BD2 binding and inhibition was assessed by monitoring the engagement of a biotinylated small molecule compound 1000 with the target using the TR-FRET assay technology (Perkin-Elmer). Specifically, in a 384 well ProxiPlate, TAF1-BD2 (0.012 uM final) in 50 mM HEPES (pH 7.5; final), 50 mM NaCl (final), 1 mM TCEP (final), 0.1 mg/mL BSA (final), and 0.069 mM Brij-35 (final) was added either in the presence of DMSO (final 0.2% DMSO) or compound dilution series in DMSO. After a 10 minute incubation at room temperature, biotin-ligand (0.04 uM final) was added. After 10 minutes incubation at room temperature, a mixture Eu-W1024 Anti-6×His antibody (Perkin Elmer AD0110) and SureLight™ Streptavidin-Allophycocyanin (SA-APC, Perkin Elmer CR130-100) were added to a final concentration of 0.2 nM antibody and 0.025 uM SA-APC, respectively. After forty minutes of equilibration at room temperature, the plates were read on an Envision instrument and IC50s calculated using a four parameter logistic model (XLFIT).

TAF1-BD1 = TAF1-BD1 (Homo sapiens, UniProt P21675); assay: TAF1-BD1 TR-FRET Binding Assay; settings: read-out: TAF1-BD1 HTRF IC50
Method: IC50 Measurements for Inhibitors Using TAF1-BD1 TR-FRET Binding Assay
His/Flag epitope tagged TAF1-BD11381-1497 was cloned, expressed, and purified to homogeneity. TAF1-BD binding and inhibition was assessed by monitoring the engagement of a biotinylated small molecule compound 1000 with the target using the TR-FRET assay technology (Perkin-Elmer). Specifically, in a 384 well ProxiPlate, TAF1-BDI (0.08 uM final) in 50 mM HEPES (pH 7.5; final), 50 mM NaCl (final), 1 mM TCEP (final), 0.1 mg/mL BSA (final), and 0.069 mM Brij-35 (final) was added either in the presence of DMSO (final 0.2% DMSO) or compound dilution series in DMSO. After a 10 minute incubation at room temperature, biotin-ligand (0.08 uM final) was added. After 10 minutes incubation at room temperature, a mixture Eu-W1024 Anti-6×His antibody (Perkin Elmer ADO 110) and SureLight™ Streptavidin-Allophycocyanin (SA-APC, Perkin Elmer CR130-100) were added to final concentrations of 0.2 nM antibody and 0.05 uM SA-APC, respectively. After forty minutes of equilibration at room temperature, the plates were read on an Envision instrument and IC50s calculated using a four parameter logistic model (XLFIT).

pIC50 (TAF1-BD2): 7.65 | pIC50 (TAF1-BD1): 6.61
Compound: CCOC(=O)c1c(C)[nH]c2c(=O)n(C)cc(C#CC(C)(O)c3ccccc3)c12 (centres unmarked) [Example 80, ethyl 4-(3-hydroxy-3-phenyl-but-1-ynyl)-2,6-dimethyl-7-oxo-1H-pyrrolo[2,3-c]pyridine-3-carboxylate]

Reference: patent US10202378B2, “Therapeutic compounds and uses thereof” (GENENTECH, INC., priority 2015, dated 2019)
